## Antibody variant affinities, Ab-14 light chain, assay B

Values reported by Li et al. 2023, doi:10.1038/s41467-023-39022-2 (FLAb copy).

Binding partner: SARS-CoV-2 spike HR2 peptide, sequence PDVDLGDISGINAS.

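The starting antibody came from a phage panning campaign against this peptide. Designed CDR sequences, proposed from the first random library and measured here. Several design methods are mixed in this list. AlphaSeq pools MATa yeast showing the antibodies with MATalpha yeast showing the peptide. Mating (16 h, 30 °C) was followed by selection of diploids and sequencing of their barcodes. Read counts were normalised to the haploid input and turned into Kd by a linear fit to BCL2-family pairs of known affinity, for each replicate. Each pool was mated in six replicate cultures.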

Each scFv is VH, a 15-residue (Gly4Ser)3 linker, VL, as in the parent Ab-14, and differs from it in the CDRs of the light chain only.
VH: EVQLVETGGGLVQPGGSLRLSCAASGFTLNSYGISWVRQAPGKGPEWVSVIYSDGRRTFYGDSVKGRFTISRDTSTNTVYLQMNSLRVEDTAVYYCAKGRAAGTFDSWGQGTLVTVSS
VL: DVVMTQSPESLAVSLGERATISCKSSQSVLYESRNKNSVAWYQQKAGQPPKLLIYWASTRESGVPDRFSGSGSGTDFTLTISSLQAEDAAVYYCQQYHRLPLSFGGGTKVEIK

Each variant is given by its three light chain CDRs, as the data file delimits them; those of the parent are KSSQSVLYESRNKNSVA, WASTRES, QQYHRLPLS.
Affinities are written as log10 Kd with Kd in nM; a lower number is a better binder.
A pair that was not seen in that replicate is written "n.d."; this usually means weak binding, but a binder can also be missed.
A sequence measured in both rounds can read differently, since the two assays cover different ranges.
A sequence that the file lists under several names has all its replicates listed entry by entry, parted by semicolons.
As a blank, each scFv also met three strains without target: over all light chain designs, 4% of these pairings were detected, typically at 2.64 and seldom below 1.59. For each scFv, signals with the empty controls are counted beside the result, with their mean in brackets.
In the paper, a design with two or fewer of six values counts as a poor binder.

| # | replicates, log10 nM | empty controls | CDR-L1 | CDR-L2 | CDR-L3 |
|---|---|---|---|---|---|
| 1 | 1.55 / 0.65 / 1.17 / 0.56 / 1.14 / 1.36 | 0/18 | QLSMLTGHVSMSKNNVA | EMETREN | QQYDRLPLS |
| 2 | 0.10 / -0.09 / -0.09 / -0.20 / -0.14 / 0.00 | 3/18 (3.17) | QLLTGVTENAKNGKAIA | NNEEKAQ | QQYFRLPFS |
| 3 | 1.04 / 0.59 / 0.31 / 0.56 / 0.37 / 0.62 | 1/18 (3.72) | KQSQSVPQGERNKNSVA | NASYRLS | QQYHRLPLS |
| 4 | n.d. / n.d. / n.d. / 3.20 / 2.29 / 2.54 | 2/18 (2.00) | KSSQSILYESRNKNSVA | WASTREM | QQYARLPLS |
| 5 | 0.44 / 0.53 / 0.39 / 0.33 / 0.51 / 0.33 | 0/18 | KFAQGIYEPWRHSHNIA | EASHVCD | QQYARLPLE |
| 6 | -0.06 / -0.16 / -0.06 / -0.24 / -0.42 / -0.03 | 2/18 (2.42) | KVSQSVLYGSRNKNSVA | EASTRES | QQYHRLPLS |
| 7 | -0.55 / -0.39 / -0.54 / -0.54 / -0.53 / -0.38 | 1/18 (1.61) | KLSQSVLYESRNSNSVA | DASTRED | QQYHRLPLS |
| 8 | 2.65 / 2.70 / 1.46 / n.d. / 2.83 / n.d. | 0/18 | HLGLATMLEEYVRNSVA | NNSTRED | QQYDRLPLS |
| 9 | 1.24 / 0.92 / 0.76 / 1.00 / 1.07 / 1.16 | 1/18 (2.51) | KSSQSVLDESNKKNSVA | WASTRES | QQYHRLPLS |
| 10 | n.d. / n.d. / n.d. / n.d. / n.d. / n.d. | 0/18 | KSSQSVLYESRNQNHVA | WASTRES | QQPHRWPLS |
| 11 | 0.17 / 0.02 / -0.18 / -0.19 / -0.20 / 0.02 | 4/18 (3.57) | KLPQSQLYESRNKNSVA | HASQRES | QQYHRLPLS |
| 12 | 0.09 / -0.16 / -0.40 / -0.44 / -0.04 / -0.13 | 2/18 (2.34) | KLSQSHLYESRNSNSVA | NASTRES | QQYHRLPLS |
| 13 | 0.58 / 1.02 / 0.69 / 0.48 / 0.86 / 0.73 | 0/18 | SLTKLETVGQKKSNNIA | EQSMRYE | QQYSQLPLK |
| 14 | -0.48 / -0.63 / -0.72 / -0.63 / -0.54 / -0.42 | 1/18 (4.28) | KLSQSVLYESRMKNAVA | NASQRES | QQYHRLPLS |
| 15 | 0.63 / 0.52 / 0.55 / 0.51 / 0.41 / 0.41 | 2/18 (2.35) | MVTQMAMQGMTNKRSVA | NAETREY | QQYHRLPLI |
| 16 | 1.54 / n.d. / n.d. / 1.57 / n.d. / 1.22 | 0/18 | IVSQLMLWGLHAKNSIA | EASTRLN | QQYDRLPLF |
| 17 | -0.22 / -0.12 / -0.06 / -0.38 / -0.58 / 0.11 | 0/18 | VLSQSVLYESRNKNSVA | NASQRES | QQYHRLPLS |
| 18 | 0.54 / 0.73 / 0.58 / 0.17 / 0.80 / 0.17 | 0/18 | KSGQGVLYESRNKNHVA | GASTRES | QQYHRLPLS |
| 19 | 0.50 / 0.29 / 0.23 / 0.38 / 0.02 / 0.41 | 2/18 (3.37) | KFSQDVLYESRTKNSVA | NASTRES | QQYHRLPLS |
| 20 | 1.00 / 0.56 / 0.51 / 1.49 / 1.16 / 0.78 | 1/18 (2.50) | KSLQSQLYESRNKNSVA | HASTRED | QLYHRLPLS |
| 21 | n.d. / n.d. / n.d. / n.d. / 3.57 / n.d. | 1/18 (2.45) | KSSQSVLYESRNLNSVA | WASCRES | NQYHRLPLS |
| 22 | 0.65 / 0.73 / 0.46 / 0.41 / 0.24 / 0.61 | 1/18 (2.91) | IISQSVLGGYHNRNSVA | QTSERGQ | QQYDRLPLS |
| 23 | n.d. / 2.88 / 3.82 / n.d. / 1.83 / n.d. | 1/18 (2.17) | KSDRSVLYESRNKNSVA | WASTRES | QTYHKLPLS |
| 24 | 0.01 / 0.07 / -0.46 / -0.19 / -0.16 / -0.27 | 0/18 | KLSFSMLYESRNKNSVA | DASTRES | QQYHRLPLS |
| 25 | n.d. / 2.78 / 2.23 / n.d. / n.d. / n.d. | 0/18 | HIQGYFTMPENANNNIA | EKHYRVR | QQYYRLPLA |
| 26 | 0.85 / 0.90 / 0.57 / 0.33 / 0.75 / 0.63 | 0/18 | TISQVMNTLTRHGNNVA | DLAEREQ | QQYFRLPLS |
| 27 | 2.16 / 1.64 / 1.40 / 1.52 / 0.60 / 1.04 | 0/18 | MISQLYNMGSFAINSVA | QASVRND | QQYDRLPLI |
| 28 | -0.31 / 0.10 / 0.17 / -0.19 / -0.19 / 0.01 | 1/18 (2.56) | KVQQSWLYESRNKNSVA | NASTRMS | QQYHRLPLS |
| 29 | 0.95 / 0.85 / 0.62 / 0.82 / 0.70 / 0.99 | 0/18 | KSSQSELYESRNFWSVA | GASTRES | QQYHRLPLS |
| 30 | -0.21 / -0.56 / -0.35 / -0.54 / -0.60 / -0.26; 0.07 / -0.26 / -0.43 / -0.20 / -0.44 / -0.17 | 2/36 (2.40) | KISQSVLYEDRNKNSVA | NASTRES | QQYHRLPLS |
| 31 | n.d. / 0.00 / -0.37 / 0.73 / -0.14 / 0.43 | 0/18 | KLPLATMQEMVSKNNVA | ELSTRGS | QQYHRLPLS |
| 32 | 1.73 / 1.50 / 1.59 / 1.09 / 1.23 / 2.19 | 1/18 (2.84) | MFDQQTMNENDKNNAVA | EVNHLVN | QQYAQLPLI |
| 33 | 0.89 / 0.62 / 0.67 / 0.36 / 0.38 / 0.43 | 0/18 | TISQMTSLFSQSINNVA | EVSMREE | QQYDRLPLQ |
| 34 | 0.58 / 0.50 / 0.23 / 0.72 / 0.56 / 0.45 | 0/18 | KITQMVTGESHNKNSIA | QMTTREG | QQYHRLPLA |
| 35 | 0.67 / 0.46 / 0.49 / 0.07 / 0.38 / 0.73 | 2/18 (2.18) | TLVDNIQGGMWAKKNVA | DESTRVN | QQYYMLPLS |
| 36 | -0.20 / -0.22 / -0.30 / -0.33 / -0.29 / -0.16 | 0/18 | HLEQSSLYEQRNKNSVA | NASLRCS | QQYHRLPLS |
| 37 | 0.79 / 0.28 / 0.24 / 0.43 / 0.43 / 0.36 | 1/18 (2.30) | KVSPSWWYESRNKANVA | HASTRES | QQYHRLPLH |
| 38 | 0.39 / 0.04 / 0.07 / 0.20 / 0.31 / 0.30 | 1/18 (3.34) | KISQSVLYESRNKNSVA | EAATREG | QQYHRLPLI |
| 39 | 0.85 / 1.34 / 1.09 / 0.96 / 1.10 / 1.52 | 0/18 | MVNQHDEGFKGVKDNIA | NAETREG | QHYGRLPLS |
| 40 | 1.25 / 1.40 / 0.80 / 1.06 / 0.66 / 1.28 | 0/18 | HINTEWNHGANRDNNIA | EAQTVAA | QDYFRLPII |
| 41 | 0.48 / 0.41 / 0.43 / 0.50 / 0.30 / 0.54 | 3/18 (2.66) | KLEQSTLYESRNKNSVA | QASTRES | QQYHRLPLS |
| 42 | 0.57 / 0.17 / 0.28 / 0.26 / 0.35 / 0.71 | 4/18 (2.87) | KSSQSVLYESRNKNSVA | ERSTRAS | QQYHRLPLS |
| 43 | 0.38 / 0.92 / 0.38 / 0.87 / 0.76 / 1.27 | 0/18 | KISQSILFHSGKKNAIA | QMEMREE | QQYDRLPLS |
| 44 | 0.26 / 0.01 / 0.01 / 0.02 / -0.01 / 0.29 | 2/18 (2.93) | KSSDGVLYESRNKNSVA | GASTRES | QQYHRLPLS |